Test results published in US12195439B1, “C1-substituted isopropylamine fused heterocyclic mescaline derivatives” (Enveric Biosciences Canada Inc., priority 2022, dated 2025).

The chains behind the UniProt entries cited, without tags or fusion partners. Residues count along the entry.
UniProt P08913, whole entry: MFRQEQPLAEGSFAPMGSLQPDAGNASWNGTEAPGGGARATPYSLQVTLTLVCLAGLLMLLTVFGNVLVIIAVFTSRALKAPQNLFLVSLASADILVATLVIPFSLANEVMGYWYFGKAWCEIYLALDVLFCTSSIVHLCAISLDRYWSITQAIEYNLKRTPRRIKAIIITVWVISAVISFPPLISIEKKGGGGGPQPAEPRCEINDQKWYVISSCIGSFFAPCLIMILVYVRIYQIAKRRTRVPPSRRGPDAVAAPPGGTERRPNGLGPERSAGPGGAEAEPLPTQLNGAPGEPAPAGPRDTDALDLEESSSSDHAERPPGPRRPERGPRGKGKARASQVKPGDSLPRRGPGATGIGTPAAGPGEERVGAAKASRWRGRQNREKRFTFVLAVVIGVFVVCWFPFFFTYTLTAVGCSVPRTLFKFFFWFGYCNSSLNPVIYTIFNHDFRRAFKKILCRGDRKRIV
UniProt P48039, whole entry: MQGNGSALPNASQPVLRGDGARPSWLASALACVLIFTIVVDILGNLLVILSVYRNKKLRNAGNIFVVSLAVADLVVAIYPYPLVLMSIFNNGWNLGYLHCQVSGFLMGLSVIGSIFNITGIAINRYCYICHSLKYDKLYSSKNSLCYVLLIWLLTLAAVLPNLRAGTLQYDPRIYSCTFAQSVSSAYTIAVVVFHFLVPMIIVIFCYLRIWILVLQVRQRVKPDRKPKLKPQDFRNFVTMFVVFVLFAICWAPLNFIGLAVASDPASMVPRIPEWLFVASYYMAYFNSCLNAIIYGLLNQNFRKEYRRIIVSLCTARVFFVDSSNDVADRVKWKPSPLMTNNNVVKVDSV
UniProt P08908, whole entry: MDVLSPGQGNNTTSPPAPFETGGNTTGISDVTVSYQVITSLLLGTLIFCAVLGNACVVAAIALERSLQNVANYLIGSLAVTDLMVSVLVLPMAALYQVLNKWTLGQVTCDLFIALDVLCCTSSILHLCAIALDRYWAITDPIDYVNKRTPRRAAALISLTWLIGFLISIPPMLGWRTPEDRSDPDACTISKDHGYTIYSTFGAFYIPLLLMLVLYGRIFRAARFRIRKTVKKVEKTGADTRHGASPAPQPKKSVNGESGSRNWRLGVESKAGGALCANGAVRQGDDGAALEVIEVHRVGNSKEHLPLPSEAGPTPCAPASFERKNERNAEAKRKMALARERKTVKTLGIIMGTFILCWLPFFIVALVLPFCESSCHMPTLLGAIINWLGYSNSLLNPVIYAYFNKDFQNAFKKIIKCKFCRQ
UniProt P34969, whole entry: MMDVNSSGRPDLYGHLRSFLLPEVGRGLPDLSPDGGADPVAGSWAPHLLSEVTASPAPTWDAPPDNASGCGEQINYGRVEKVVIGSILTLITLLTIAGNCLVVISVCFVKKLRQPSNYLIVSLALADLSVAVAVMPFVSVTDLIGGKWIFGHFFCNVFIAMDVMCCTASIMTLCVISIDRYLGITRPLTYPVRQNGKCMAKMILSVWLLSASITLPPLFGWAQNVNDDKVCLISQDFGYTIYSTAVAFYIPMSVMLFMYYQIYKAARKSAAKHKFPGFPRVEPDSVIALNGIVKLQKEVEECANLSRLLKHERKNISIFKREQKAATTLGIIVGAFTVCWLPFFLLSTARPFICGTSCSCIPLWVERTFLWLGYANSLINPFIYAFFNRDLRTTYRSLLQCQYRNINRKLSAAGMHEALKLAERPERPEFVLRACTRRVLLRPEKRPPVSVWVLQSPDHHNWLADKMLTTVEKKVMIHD
UniProt Q01959, whole entry: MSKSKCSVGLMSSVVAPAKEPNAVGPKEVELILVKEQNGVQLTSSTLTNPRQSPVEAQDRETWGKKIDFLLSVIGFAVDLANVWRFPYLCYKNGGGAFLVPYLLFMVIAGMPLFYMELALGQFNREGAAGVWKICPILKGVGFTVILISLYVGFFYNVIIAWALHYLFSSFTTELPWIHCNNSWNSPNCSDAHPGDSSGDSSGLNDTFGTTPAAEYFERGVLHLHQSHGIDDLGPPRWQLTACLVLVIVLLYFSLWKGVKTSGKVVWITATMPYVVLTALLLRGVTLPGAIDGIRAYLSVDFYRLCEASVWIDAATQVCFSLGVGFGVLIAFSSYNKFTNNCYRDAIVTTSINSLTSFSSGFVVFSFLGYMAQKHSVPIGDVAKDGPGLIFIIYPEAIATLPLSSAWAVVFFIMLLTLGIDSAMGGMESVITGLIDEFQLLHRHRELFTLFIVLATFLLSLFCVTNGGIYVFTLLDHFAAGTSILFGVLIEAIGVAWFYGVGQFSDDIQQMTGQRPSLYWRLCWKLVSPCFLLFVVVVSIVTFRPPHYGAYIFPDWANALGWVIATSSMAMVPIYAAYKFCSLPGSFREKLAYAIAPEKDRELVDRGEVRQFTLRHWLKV
UniProt P28335, 33-458 limits assumed: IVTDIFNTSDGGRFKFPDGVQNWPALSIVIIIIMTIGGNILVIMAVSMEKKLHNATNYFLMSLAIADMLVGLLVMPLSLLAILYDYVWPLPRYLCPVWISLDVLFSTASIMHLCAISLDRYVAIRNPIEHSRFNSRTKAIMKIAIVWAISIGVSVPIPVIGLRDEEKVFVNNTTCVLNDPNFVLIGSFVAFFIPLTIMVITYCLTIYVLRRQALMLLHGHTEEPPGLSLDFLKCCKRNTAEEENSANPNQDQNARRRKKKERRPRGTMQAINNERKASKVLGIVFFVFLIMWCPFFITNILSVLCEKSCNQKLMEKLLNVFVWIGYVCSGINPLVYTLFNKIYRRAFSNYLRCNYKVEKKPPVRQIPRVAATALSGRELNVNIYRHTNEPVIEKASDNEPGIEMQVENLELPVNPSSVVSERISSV
UniProt P23975, whole entry: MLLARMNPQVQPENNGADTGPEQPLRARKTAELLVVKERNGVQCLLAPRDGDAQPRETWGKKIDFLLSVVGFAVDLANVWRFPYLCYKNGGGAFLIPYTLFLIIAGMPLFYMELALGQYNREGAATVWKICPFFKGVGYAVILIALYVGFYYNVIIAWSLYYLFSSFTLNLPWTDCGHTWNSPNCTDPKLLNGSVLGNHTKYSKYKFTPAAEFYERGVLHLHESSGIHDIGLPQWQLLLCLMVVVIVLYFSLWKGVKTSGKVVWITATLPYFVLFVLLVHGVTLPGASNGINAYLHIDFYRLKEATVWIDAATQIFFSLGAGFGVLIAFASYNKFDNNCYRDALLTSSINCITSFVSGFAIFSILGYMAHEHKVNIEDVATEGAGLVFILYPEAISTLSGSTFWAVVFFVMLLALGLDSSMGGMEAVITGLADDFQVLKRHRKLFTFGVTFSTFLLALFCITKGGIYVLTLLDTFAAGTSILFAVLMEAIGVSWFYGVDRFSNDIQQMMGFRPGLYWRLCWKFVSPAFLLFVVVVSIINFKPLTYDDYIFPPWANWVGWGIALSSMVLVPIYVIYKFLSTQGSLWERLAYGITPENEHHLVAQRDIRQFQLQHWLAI
UniProt P31645, whole entry: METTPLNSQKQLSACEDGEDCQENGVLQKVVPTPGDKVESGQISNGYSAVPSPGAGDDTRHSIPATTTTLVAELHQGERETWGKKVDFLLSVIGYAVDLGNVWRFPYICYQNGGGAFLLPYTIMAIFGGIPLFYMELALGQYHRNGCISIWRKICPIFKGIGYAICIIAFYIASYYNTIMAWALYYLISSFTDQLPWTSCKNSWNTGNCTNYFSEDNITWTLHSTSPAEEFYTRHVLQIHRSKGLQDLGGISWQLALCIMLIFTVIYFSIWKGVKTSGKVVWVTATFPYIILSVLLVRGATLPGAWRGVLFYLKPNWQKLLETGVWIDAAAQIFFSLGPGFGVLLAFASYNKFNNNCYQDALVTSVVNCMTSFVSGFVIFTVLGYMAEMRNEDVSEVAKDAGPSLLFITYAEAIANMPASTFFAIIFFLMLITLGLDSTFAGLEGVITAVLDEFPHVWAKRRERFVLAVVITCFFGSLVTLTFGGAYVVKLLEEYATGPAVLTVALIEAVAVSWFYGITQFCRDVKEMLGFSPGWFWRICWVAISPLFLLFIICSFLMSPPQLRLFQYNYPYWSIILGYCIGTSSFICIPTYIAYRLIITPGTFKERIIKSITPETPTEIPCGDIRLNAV
UniProt P41595, whole entry: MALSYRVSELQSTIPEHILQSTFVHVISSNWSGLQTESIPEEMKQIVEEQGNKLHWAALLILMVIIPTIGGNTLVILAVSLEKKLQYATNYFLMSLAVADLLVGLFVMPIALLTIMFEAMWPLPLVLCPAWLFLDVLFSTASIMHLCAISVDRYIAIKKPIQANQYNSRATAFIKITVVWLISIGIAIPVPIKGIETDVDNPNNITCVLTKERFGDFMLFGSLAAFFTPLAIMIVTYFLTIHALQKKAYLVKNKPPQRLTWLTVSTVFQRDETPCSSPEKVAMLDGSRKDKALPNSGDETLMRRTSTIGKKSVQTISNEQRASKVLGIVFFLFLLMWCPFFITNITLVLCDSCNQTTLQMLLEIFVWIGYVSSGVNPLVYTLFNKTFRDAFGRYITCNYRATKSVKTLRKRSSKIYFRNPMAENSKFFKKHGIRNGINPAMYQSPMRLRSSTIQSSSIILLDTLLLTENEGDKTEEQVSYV

Key:
alpha2A receptor = alpha2A receptor (Homo sapiens, UniProt P08913); details: 10 μM test ligand, [3H]RX 821002, recombinant receptor from CHO cells
MT1 receptor = MT1 receptor (Homo sapiens, UniProt P48039); details: 10 μM test ligand, [125I]2-iodomelatonin, recombinant receptor from CHO cells
5-HT1A receptor [1] = molecular target: T1, 5-HT1A receptor (Homo sapiens, UniProt P08908); details: 10 μM test ligand, [3H]8-OH-DPAT, recombinant receptor from HEK-293 cells
5-HT7 receptor = 5-HT7 receptor (Homo sapiens, UniProt P34969); details: 10 μM test ligand, [3H]LSD, recombinant receptor from HEK-293 cells
[2] = molecular target: dopamine transporter (DAT) (Homo sapiens, UniProt Q01959); details: 10 μM test ligand, [3H]BTCP, recombinant transporter from CHO cells
5-HT2C receptor = 5-HT2C receptor (Homo sapiens, UniProt P28335); details: 10 μM test ligand, [125I](±)DOI, recombinant receptor from HEK-293 cells
[3] = molecular target: norepinephrine transporter (NET) (Homo sapiens, UniProt P23975); details: 10 μM test ligand, [3H]nisoxetine, recombinant transporter from CHO cells
[4] = molecular target: serotonin transporter (SERT) (Homo sapiens, UniProt P31645); details: 10 µM
5-HT1A receptor [5] = molecular target: T1, 5-HT1A receptor
5-HT2B receptor = 5-HT2B receptor (Homo sapiens, UniProt P41595); details: 10 μM test ligand, [3H]mesulergine, recombinant receptor from CHO cells

| SMILES | α-2A, percent of control-specific binding (alpha2A receptor) [%] | MT1, percent of control-specific binding (MT1 receptor) [%] | HT1A, percent of control-specific binding (5-HT1A receptor [1]) [%] | HT7, percent of control-specific binding (5-HT7 receptor) [%] | DAT, percent of control-specific binding [2] [%] | HT2C, percent of control-specific binding (5-HT2C receptor) [%] | NET, percent of control-specific binding [3] [%] | SERT, percent of control-specific binding [4] [%] | Ki (5-HT1A receptor [5]) [µM] | HT2B, percent of control-specific binding (5-HT2B receptor) [%] |
| --- | --- | --- | --- | --- | --- | --- | --- | --- | --- | --- |
| C[C@@H]([C@@H](F)c1ccc2c(c1)OCO2)N(C)Cc1ccccc1 (relative stereo) | 94 | 12 | 50 | 57 | 75 | 88 | 28 | 66 | 8.1 | 66 |
| C[C@@H]([C@@H](O)c1ccc2c(c1)OCO2)N1CCCC1 (relative stereo) | 22 | 0 | 0 | 0 | 32 | 15 | 1 | 10 | 37 | 4 |
| C[C@@H]([C@H](O)c1ccc2c(c1)OCO2)N1CCCC1 (relative stereo) | 7 | 10 | 1 | 0 | 6 | 0 | 0 | 28 | 480 | 0 |
